This is a selection; strong and weak results do not stand in their true shares. Some results for these compounds are left out of this collection, so the calls shown say nothing about other tests. The source made the active and inactive calls.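 The calls were made as follows: active = inhibition above a set limit, the mean inhibition across every tested compound plus 3 SD (cut at about 29% in these data); inactive = the rest.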
Molecular target: 5-hydroxytryptamine receptor 1E (Homo sapiens) (UniProt P28566)
Experiment: 5-HT1E receptor antagonists, primary screen, cell-based, HTS (AID 571);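 also: signal is the 460 over 535 nm emission ratio of beta-lactamase substrate; 0% = agonist plus DMSO wells and 100% = wells without agonist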
Conditions: CHO 5-HT1E Ga15 NFAT-bla reporter, FRET, antagonist; at 6 µM; stronger effect = higher value

Protein sequences, listed by entry. Tags and fused reporters are not part of them.
UniProt P28566, whole entry: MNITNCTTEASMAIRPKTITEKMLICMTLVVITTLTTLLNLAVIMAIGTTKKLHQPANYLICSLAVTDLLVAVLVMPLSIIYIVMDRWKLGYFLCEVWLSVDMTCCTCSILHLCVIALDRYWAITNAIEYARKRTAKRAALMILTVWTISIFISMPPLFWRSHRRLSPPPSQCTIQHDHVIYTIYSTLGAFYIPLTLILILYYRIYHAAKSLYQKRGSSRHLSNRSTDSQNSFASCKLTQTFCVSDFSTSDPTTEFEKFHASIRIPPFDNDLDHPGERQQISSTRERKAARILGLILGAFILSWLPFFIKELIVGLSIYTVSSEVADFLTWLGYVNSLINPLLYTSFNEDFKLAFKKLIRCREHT

Compound	inhibition
CN(C)c1cccc(C(=O)NCC2(N(C)C)CCCCC2)c1	inactive: -12.5%
O=C(OC1CN2CCC1CC2)C(CO)(c1ccccc1)c1ccccc1 (configuration not stated)	inactive: -5.8%
